This is a selection; strong and weak results do not stand in their true shares. The source made the active and inactive calls. Calls come from the whole dose curve; as a rule, active = well fitted inhibition curve with a large enough effect; inconclusive = small, poorly fitted or top-dose-only effect; inactive = no such curve, though single readings can be large or run the other way.
target: Schistosoma mansoni thioredoxin glutathione reductase (TGR) (UniProt Q962Y6); assay: qHTS Assay for the Inhibitors of Schistosoma Mansoni Peroxiredoxins; conditions: purified TGR, DTNB reduction, TNB absorbance 405 nm; series mostly up to 114 µM; activity change, negative = inhibition: at the top concentration; note: nearly all actives have a fitted effect of over 60% in size
In short: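 TGR 20 nM + NADPH 100 uM (dispensed conc.), cpd preinc 15 min RT; start with NADPH (500 uM addition) then DTNB (15 mM addition). Kinetic TNB absorbance, 405 nm filter. Four-parameter Hill fit across titration.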
% is set by controls: 0 for no effect and ±100 for the full control effect.

| SMILES | activity change, negative = inhibition |
| --- | --- |
| CP(=O)(Nc1ccccn1)Oc1ccc(Cl)cc1 (stereo not drawn) | inactive: -2.7% |
| CP(=O)(Oc1ccccc1)OC(c1ccccc1)C(F)(F)F (stereo not drawn) | inactive: -2.45% |
| CP(=O)(Nc1ccc(SC(F)(F)F)cc1)Oc1ccc(Cl)cc1 (stereo not drawn) | inactive: 2.19% |
| Cc1cccc(C)c1OP(C)(=O)Nc1ccc(SC(F)(F)F)cc1 (stereo not drawn) | inactive: -1.11% |
| Cc1cc(C)cc(OP(C)(=O)Nc2ccc(SC(F)(F)F)cc2)c1 (stereo not drawn) | inactive: -17% |
| CCc1ccc(OP(C)(=O)N2CCN(c3ccc([N+](=O)[O-])cc3)CC2)cc1 (stereo not drawn) | inactive: 1.56% |
| CP(=O)(NC(=O)Nc1ccccc1)Oc1ccccc1 (stereo not drawn) | inactive: 4.19% |
| CP(=S)(Nn1cnnc1)Oc1ccccc1 (stereo not drawn) | inactive: 0.688% |
| COc1ccccc1OP(C)(=O)Nc1ccccc1 (stereo not drawn) | inactive: 4.68% |
| CP(=O)(Nc1ccccc1Br)Oc1ccccc1 (stereo not drawn) | inactive: 4.58% |
| CP(=O)(OC12CC3CC(CC(C3)C1)C2)OC12CC3CC(CC(C3)C1)C2 | inactive: -1.92% |
| CCOC(=O)c1ccc(NP(C)(=O)Oc2ccc(Cl)cc2)cc1 (stereo not drawn) | inactive: -19.7% |
| CP(=O)(Nc1ccc(Cl)cc1)Oc1ccc(F)cc1 (stereo not drawn) | inactive: -1.38% |
| CC(C)(C)c1ccc(OP(C)(=O)O)cc1 | inactive: -8.91% |
| COc1ccccc1OP(C)(=O)Nc1ccccc1Br (stereo not drawn) | inactive: 4.1% |
| CN(C)C(=O)c1c([N+](=O)[O-])cc([N+](=O)[O-])cc1[N+](=O)[O-] | inactive: 2.63% |
| COc1ccc(OP(C)(=O)Nc2ccc(Br)cc2)cc1 (stereo not drawn) | inactive: -4.6% |
| CCN(CC)CC(O)COC(=O)C(O)(c1ccccc1)C1CCCCC1 (stereo not drawn) | inactive: -24.7% |
| CCc1ccc(OP(C)(=O)Nc2cccnc2)cc1 (stereo not drawn) | inactive: -3.25% |
| CP(=O)(Oc1ccccc1)N1CCOC1=O (stereo not drawn) | inactive: 14.2% |
| O=C(OCCCN1CCCC1)C(O)(c1ccccc1)C1CCCCC1 (stereo not drawn) | inactive: -1.14% |
| COc1ccccc1OP(C)(=O)Nc1c(C)n(C)n(-c2ccccc2)c1=O (stereo not drawn) | inactive: -0.068% |
| O=[N+]([O-])c1cc([N+](=O)[O-])c(Nc2ccccn2)c([N+](=O)[O-])c1 | inactive: 2.69% |
| Cc1c(NP(C)(=O)Oc2ccc(C(C)C)cc2)c(=O)n(-c2ccccc2)n1C (stereo not drawn) | inactive: -3.59% |
| CCc1ccc(OP(C)(=O)O)cc1 | inactive: -19.2% |
| COc1ccccc1OP(C)(=O)Nc1ccc(C)cc1C (stereo not drawn) | inactive: 41.3% |
| CP(=O)(Nc1ccccn1)Oc1ccccc1 (stereo not drawn) | inactive: -12.4% |

| SMILES | activity change, negative = inhibition |
| --- | --- |
| COc1ccccc1OP(C)(=O)Nc1ccc(Br)cc1 (stereo not drawn) | inactive: 2.6% |
| CN(C)CCOC(=O)C(O)(c1ccccc1)C1CCCC1 (stereo not drawn) | inactive: -4.08% |
| COc1ccc(OP(C)(=O)Nc2ccccn2)cc1 (stereo not drawn) | inactive: 10.6% |
| Cc1nc2ccc3ccccc3c2o1.O=[N+]([O-])c1cc([N+](=O)[O-])c(O)c([N+](=O)[O-])c1 | inactive: -17.7% |
| CP(=O)(OCCOc1ccccc1)OCCOc1ccccc1 | inactive: 15.9% |
| CP(=O)(Nc1ccc(Cl)cc1Cl)Oc1ccccc1 (stereo not drawn) | inactive: 9.9% |
| Cc1cc(C)cc(OP(C)(=O)Nc2cccc(C(F)(F)F)c2)c1 (stereo not drawn) | inactive: -34.4% |
| COc1ccc(OP(C)(=O)Nc2ccccc2Br)cc1 (stereo not drawn) | inactive: -4.37% |
| COc1ccccc1OP(C)(=O)Nc1ccc(C)c(C)c1 (stereo not drawn) | inactive: 0% |
| CCN(CC)CCCOC(=O)C(O)(c1ccccc1)C1CCCCC1 (stereo not drawn) | inactive: -0.196% |
| CCCCCOc1ccc(NP(C)(=O)Oc2ccc(Cl)cc2Cl)cc1 (stereo not drawn) | inactive: -12.3% |
| CP(=O)(Nc1ccccc1)Oc1ccc(F)cc1 (stereo not drawn) | inactive: -0.452% |
| COc1ccc(OP(C)(=O)Nc2ccc(SC(F)(F)F)cc2)cc1 (stereo not drawn) | inactive: -5.82% |
| CCOC(=O)c1ccc(NP(C)(=O)Oc2ccc(F)cc2)cc1 (stereo not drawn) | inactive: 5.64% |
| O=C(OCCN1CCN(CCOCc2ccccc2)CC1)C(O)(c1ccccc1)c1ccccc1 | inactive: -6.17% |
| CC(C)c1ccc(OP(C)(=O)Nc2ccc(SC(F)(F)F)cc2)cc1 (stereo not drawn) | inactive: -21.5% |
| CP(=O)(Nc1ccccc1F)Oc1ccccc1 (stereo not drawn) | inactive: -7.19% |
| CP(=O)(Nc1ccc2c(c1)OCCO2)Oc1ccccc1 (stereo not drawn) | inactive: -19.9% |
| Cc1ccccc1NP(C)(=O)Nc1ccccc1C | inactive: -5.35% |
| CP(=O)(Nc1ccc(SC(F)(F)F)cc1)Oc1ccc(F)cc1 (stereo not drawn) | inactive: 4.54% |
| CCOP(C)(=S)SCC(=O)NC(C)(CC)C(=O)O (stereo not drawn) | inactive: -3.22% |
| Cc1cc(-c2cccc3ccccc23)c(C)cn1.O=[N+]([O-])c1cc([N+](=O)[O-])c(O)c([N+](=O)[O-])c1 | inactive: -10.9% |
| O=[N+]([O-])c1ccc(OP2(=O)COCCO2)cc1 (stereo not drawn) | inactive: 13.6% |
| COc1ccc(OP(C)(=O)Nc2cccc(Br)c2)cc1 (stereo not drawn) | inactive: -2.27% |
| COc1ccc(NP(C)(=O)Oc2ccccc2OC)cc1 (stereo not drawn) | inactive: 9.67% |
| CN(C)CCOC(=O)C(O)(c1ccccc1)C1CCCCC1 (stereo not drawn) | inactive: 1.05% |
